Assay results taken from US20080138411A1, “Modified Release Formulations Of Selective Serotonin Re-Uptake Inhibitors” (priority 2002, published 2008).

Experiment: Particle size measurement of Citalopram HBr, Paroxetine HCl and Fluoxetine HCl
Type: physicochemical
Conditions: Dist. Base: Volume
Experimental: Particle size measurements were conducted on Paroxetine HCl.

## CNCCC(Oc1ccc(C(F)(F)F)cc1)c1ccccc1.Cl (centres unmarked) [Fluoxetine HCl Provided by Supplier 2]
  Particle size, Mode: 18.612 µm
  Span: (D 20.0-D 10.0)/D50: Span: (D 20.0-D 10.0)/D50 = 0.178
